TDP-43 yeast inh – TDP-43 toxicity inhibition in yeast; TDP-43 expressing yeast growth rescue, BacTiter-Glo, 24 h; 1.8% of 410,000 active; AID 652104; Potency, µM (top dose mostly 46.1 µM), inactives show top-dose growth rescue (activation), hits mostly activators; also: % of control where 0% means no effect; nearly all actives have a fitted effect of over 50% in size
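Yeast cells expressing TDP-43 under galactose induction are exposed to compounds for 24 hr at 30 deg C. BacTiter-Glo luminescence measures growth, so protective compounds score as activators.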
Abeta rescue – compounds reversing amyloid beta toxicity in yeast; yeast expressing A-beta42, growth rescue, OD600, 48 h; response scale: 0% DMSO, 100% iron-clioquinol control; Potency, µM (top dose mostly 46.1 µM), most hits filed as activators; 0.063% of 410,000 active; also: nearly all actives have a fitted effect of over 55% in size
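Growth rescue measured by 600 nm absorbance after 48 h yeast culture at 30 C with compound. Values normalized between DMSO and an equimolar ferric chloride plus clioquinol control.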
Rango-impB inh – inhibitors of Rango-importin beta complex formation; Rango CFP/YFP FRET sensor + importin beta, 45 min; 0.031% of 340,000 active; Potency, µM (highest dose often 92.2 µM), inactives show at the highest dose inhibition of complex formation; calls by dose curve;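 also: 0% = DMSO wells and 100% = buffer wells lacking importin beta; nearly all actives have a fitted effect of over 15% in size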
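FRET biosensor (snurportin 1 IBB flanked by EYFP and cerulean), 50 nM, with compound 5 min, then 0.125 microM importin beta in PBS, 1 mM DTT, 0.02% Tween-20, 0.1% BSA. CFP/YFP ratio read after 45 min at room temperature; pre-read flags interference.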
Rango release inh – inhibition of RanGTP-driven Rango-importin beta dissociation | O95149+P62826 | AID 540253 | 0.071% of 340,000 active | Potency, µM (highest dose often 46.1 µM), for inactives: at the highest dose activity change, negative = inhibition | Biochemical FRET Rango-importin beta, RanGTP-induced dissociation; calls by dose curve; also: % of control where 0% means no effect; nearly all actives have a fitted effect of over 45% in size
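Rango/importin beta premix (0.1/0.25 uM final), PBS + 1 mM DTT + 0.02% Tween-20 + 0.1% BSA; cpd 5 min RT; FRET pre-read; + RanGTP-RCC1 (0.6 uM Ran, 2 mM GTP, 0.2 uM RCC1); 45 min RT; FRET post-read, ex 430, em 486/530 nm.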
aSyn yeast inh – rescues yeast growth from alpha-synuclein toxicity; AID 652106; Potency, µM (doses to about 46.1 µM), inactives show top-dose growth rescue (activation), actives largely listed as activators; Yeast expressing alpha-synuclein, growth rescue, BacTiter-Glo, 24 h; 0.14% of 370,000 active; also: % of control where 0% means no effect; nearly all actives have a fitted effect of over 65% in size
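Readout is rescue of growth in alpha-synuclein-expressing yeast, so inhibitors of toxicity appear as activators. Growth after 24 hr at 30 deg C in galactose medium is quantified by luminescence.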
S-ASM inh – human S-ASM enzyme inhibition; P17405; placental ASM, HMU-PC fluorogenic substrate, 60 min; Potency, µM (highest dose often 57.5 µM), without a hit: at the highest dose activity change, negative = inhibition, hits mostly inhibitors; 0.006% of 340,000 active; AID 504937
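Fluorogenic HMU-PC substrate (9 uM final) is turned over by placental ASM in 60 min at 37 C after a 10 min compound preincubation. Reaction ended by alkaline stop (pH 10), with fluorescence read at 386/447 nm.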
Starred values were filed as active, the others as inactive; i = inactive; ? = inconclusive; . = no result given. The list is not random: actives were taken first. Their share in the collection is about 2%. Unless noted, calls follow the shape of the dose curve; as a rule, active = well fitted curve in the direction sought with a large enough effect; inconclusive = small, poorly fitted or top-dose-only effect, or another doubt; inactive = no such curve, though single readings can be large; an effect the other way counts as inactive or inconclusive. Potency is read from the fitted curve at half-maximal effect.

SMILES	TDP-43 yeast inh	Abeta rescue	Rango-impB inh	Rango release inh	aSyn yeast inh	S-ASM inh
Cc1cc(NC(=O)COC(=O)c2ccccc2OCCOc2ccccc2)ccc1Br	.	.	.	.	-2%	.
Cc1ccc2c(c1)cc1c(=O)n(CC(=O)NCc3ccco3)nc(C)n12	15%	i	.	.	.	.
COc1cccc(C(=O)NC(=O)Nc2ccc(-n3nc(C(F)(F)F)cc3C(F)(F)F)cc2)c1	1%	i	.	.	.	.
COc1cc2c(cc1OC)CN(C(=O)c1ccc(Br)o1)CC2	16µM*	i	5%	0%	5%	3%
COc1cc2c(cc1OC)CN(C(=O)c1ccc(OC)c([N+](=O)[O-])c1)CC2	3%	i	0%	20%	-3%	0%
COc1cc2c(cc1OC)CN(C(=O)c1cccc([N+](=O)[O-])c1)CC2	22µM*	i	-2%	2%	?	0%
COc1ccc(-c2c3c(=O)n(C)c(=O)n(C)c3c3c(-c4ccc(C)cc4)nc4ccccc4n23)cc1	27%	i	.	.	.	.
COc1ccc(-c2onc(C)c2C)cc1S(=O)(=O)Nc1cccc(C#N)c1	-5%	i	.	.	.	.
CCN=c1scc(C)n1/N=C/c1cc(Br)c(O)c(Br)c1	3.2µM*	i	?	?	-18%	69%
CCN=c1scc(C)n1/N=C/c1ccc(O)c(O)c1O	-12%	i	-3%	-2%	-7%	-5%
Fc1ccc(-c2nn(-c3ccccc3)cc2CNCc2ccccc2)cc1	-20%	i	-4%	-12%	-9%	-2%
O=C(CCl)Nc1cn(-c2ccccc2)nc1-c1ccc(F)cc1	8.9µM*	i	0%	1%	4%	-9%
O=C(COC(=O)c1c(Cl)cccc1Cl)NCc1cccs1	?	i	1%	-8%	5%	-3%
O=C(COC(=O)c1cccc(Cl)c1Cl)NCc1cccs1	13µM*	i	1%	-1%	0%	-4%
O=C1/C(=C/c2ccccc2Cl)SC(=S)N1CCCC(=O)N(CCO)c1ccccc1	27%	i	-4%	6%	18µM*	-19%
O=C(CCCN1C(=O)/C(=C/c2ccccc2Cl)SC1=S)Nc1ccccn1	6%	i	3%	15%	14%	0%
COc1ccc(/C=C\c2onc(C)c2S(=O)(=O)N2CCC(C(=O)Nc3ccc(F)cc3F)CC2)cc1	12%	i	.	.	.	.
O=C1Nc2ccc(I)cc2C1=Cc1cc(Br)c(O)c(Br)c1	.	.	.	.	3.2µM*	.
CC(=O)N1CCCc2cc(S(=O)(=O)N3CCN(c4ccc(F)cc4)CC3)ccc21	12%	i	.	.	.	.
COc1ccc(OC)c(NC(=O)c2nc(S(=O)(=O)Cc3ccccc3F)ncc2Cl)c1	.	.	.	.	-7%	.

Among those listed so far, these have four or more nitrogen atoms:
SMILES	TDP-43 yeast inh	Abeta rescue	Rango-impB inh	Rango release inh	aSyn yeast inh	S-ASM inh
Cc1ccc2c(c1)cc1c(=O)n(CC(=O)NCc3ccco3)nc(C)n12	15%	i	.	.	.	.
COc1cccc(C(=O)NC(=O)Nc2ccc(-n3nc(C(F)(F)F)cc3C(F)(F)F)cc2)c1	1%	i	.	.	.	.
COc1ccc(-c2c3c(=O)n(C)c(=O)n(C)c3c3c(-c4ccc(C)cc4)nc4ccccc4n23)cc1	27%	i	.	.	.	.

New compounds follow.
SMILES	TDP-43 yeast inh	Abeta rescue	Rango-impB inh	Rango release inh	aSyn yeast inh	S-ASM inh
C#CCNC(=O)C[C@@H]1C[C@@]2(C(=O)OCC)CCCC=C2N(CCCCCCCC)C1=O	13µM*	i	.	.	?	.
CCOC(=O)[C@]12CCCC=C1N(CCC1=CCCCC1)C(=O)[C@H](CC(=O)NCC1CCCCC1)C2	22µM*	i	.	.	-7%	.
COC(=O)[C@@]12C[C@@H](CC(=O)NCCCN3CCCC3=O)C(=O)N(Cc3ccccc3)C1=CCC(C)(C)C2	?	i	.	.	3%	.
CCCCCCCCN1C(=O)[C@H](CC(=O)NCCCN2CCCC2=O)C[C@@]2(C(=O)OC)CC(C)(C)CC=C12	35µM*	i	.	.	-11%	.
CCOC(=O)[C@]12CCCC=C1N(CCC1=CCCCC1)C(=O)[C@H](CC(=O)NCc1ccccc1)C2	22µM*	?	.	.	3%	.
CCCCCCCCN1C(=O)[C@H](CC(=O)NCC2CCCCC2)C[C@@]2(C(=O)OCC)CCCC=C12	-2%	i	.	.	0%	.
CCOC(=O)[C@]12CCC=C1N(CCC1=CCCCC1)C(=O)[C@H](CC(=O)NCC1CCCCC1)C2	16%	i	.	.	9%	.
CC(C)n1c(=O)c2oc3ccccc3c2n(CC(=O)Nc2ccccc2Cl)c1=O	1%	i	.	.	.	.
Cc1ccc(CNC(=O)c2ccc3c(O)c(S(=O)(=O)c4ccc(Cl)cc4)c(=O)[nH]c3c2)cc1	6%	i	.	.	.	.
COCCOC(=O)C1=C(C)NC(C)=C(C(=O)OC/C=C/c2ccccc2)C1c1cccc([N+](=O)[O-])c1 (stereo not given)	.	.	.	.	21%	.
COc1cc2c(NC3CCN(C)CC3)nc(N3CCCN(C)CC3)nc2cc1OCc1ccccc1	.	.	.	.	-11%	.
CCCCCCCC(=O)N/N=C/c1ccc([N+](=O)[O-])o1	20µM*	i	?	10%	4%	-12%
Cc1ccccc1OCC(=O)N/N=C/c1ccc([N+](=O)[O-])o1	11%	i	?	16µM*	5%	-7%
O=C(CNc1cccc2ccccc12)N/N=C/c1ccc([N+](=O)[O-])o1	20µM*	i	5%	2%	19%	-18%
O=C(COc1ccccc1[N+](=O)[O-])N/N=C/C=C/c1ccco1	14%	i	-1%	-3%	-2%	-2%
O=C(CNc1cccc([N+](=O)[O-])c1)N/N=C/c1ccc([N+](=O)[O-])o1	3%	i	7%	-17%	4%	-3%
COc1ccccc1OCC(=O)N/N=C/C=C/c1ccc([N+](=O)[O-])o1	13µM*	i	-3%	-2%	?	-1%
Nc1cccc(/C=C2\C=Cc3ccccc32)c1	.	.	.	.	3%	.
O=c1oc2c(F)cc(F)cc2cc1S(=O)(=O)c1ccc(F)cc1	14%	i	.	.	.	.
Cc1cc(N/N=C/c2ccc([N+](=O)[O-])o2)nc2ccccc12	13µM*	i	9%	-9%	0%	-8%
Cc1cc2ncn(/N=C/c3ccc([N+](=O)[O-])o3)c2cc1C	8.9µM*	i	58µM*	0%	?	-5%
Cc1cccnc1Nc1nc(-c2ccccn2)cs1	?	i	-5%	7%	?	2%
Cc1cccnc1Nc1nc(-c2ccc(O)cc2O)cs1	22µM*	i	-4%	4%	?	-10%
c1ccc(Nc2nc(-c3cccnc3)cs2)nc1	15%	i	-2%	1%	-2%	4%
Clc1ccccc1Nc1nc(-c2cccnc2)cs1	6%	i	2%	11%	-9%	-3%
Cc1cccnc1Nc1nc(-c2ccccc2)cs1	16µM*	i	9%	-6%	-42%	-4%
Oc1ccc(-c2csc(Nc3ccccn3)n2)c(O)c1	20µM*	i	-4%	-2%	-6%	-6%
CCOc1ccccc1Nc1nc(-c2cccnc2)cs1	11µM*	i	5%	-7%	-12%	-1%

Limited to S-ASM inh, for some of the entries so far:
| canonical_smiles | S-ASM inh |
| --- | --- |
| Cc1cccnc1Nc1nc(-c2ccccc2)cs1 | -4% |
| Cc1cc2ncn(/N=C/c3ccc([N+](=O)[O-])o3)c2cc1C | -5% |
| Cc1cccnc1Nc1nc(-c2ccccn2)cs1 | 2% |
